Assay: pharmacokinetic and pharmacodynamic behaviour (plasma level, tmax, AUC)
Details: 150 mg S(+)-ibuprofen

S(+)-ibuprofen-L-(+)-lactic acid complex
effect onset: Rapid effect onset

— patent US5254728A, “Complexes containing S(+)-phenyl alkanoic acids and α-hydroxyalkanoic” (priority 1990, dated 1993)
